Experimental data from patent US20070135407A1, “Serm reduction of lipid profiles” (priority 2005, published 2007).

Test system: men with histologically documented prostate cancer receiving ADT

SMILES: CN(C)CCOc1ccc(/C(=C(/CCCl)c2ccccc2)c2ccccc2)cc1 [Toremifene, toremifene]
- magnitude of lipid changes elicited by toremifene treatment (patients not concomitantly taking statins vs patients taking statins): greater in patients who were not concomitantly taking statins
- all serum lipid parameters measured (overall result) (patients treated with toremifene 80 mg/day, month 12): statistically significant improvement
- total circulating cholesterol levels (change) (toremifene 80 mg/day, baseline to month 12, compared to placebo, interim analysis of first 197 subjects, p=0.001): −7.1%
- LDL levels (change) (toremifene 80 mg/day, baseline to month 12, compared to placebo, interim analysis of first 197 subjects, p=0.003): −9.0%
- triglyceride levels (change) (toremifene 80 mg/day, baseline to month 12, compared to placebo, interim analysis of first 197 subjects, p=0.009): −20.1%
- HDL levels (change) (toremifene 80 mg/day, baseline to month 12, compared to placebo, interim analysis of first 197 subjects, p=0.018): +5.4%
